How the values were obtained:
USP7 [1] = biological target: T1, USP7 (Homo sapiens (Human), UniProt Q93009); assay: USP7 fluorescence polarisation (FP) assay with ubiquitin-Lys-TAMRA substrate
USP7 [2] = biological target: T1, USP7; assay: Target engagement assay-HTRF, competition with HA-Ub-VPS probe in HEK293 cells stably expressing Flag-tagged USP7; conditions: read-out: Cellular target engagement: HEK293 Stable clone M6C5 USP7 IC50; HEK293 stable clone M6C5, 2 h treatment
Description: HEK293 cells stably expressing Flag-tagged USP7 were treated with vehicle (DMSO) or compound (using 50 μM starting concentration and 11 dp using 1:3 serial dilution) for 2 h and subsequently lysed on ice and homogenised. Cell lysate and HA-Ub-VPS probe was then added to a white flat bottomed 384 well plate (Greiner) to a total volume of 10 μL and incubated for 40 min. 10 μL of D2 and Tb detection antibodies were subsequently added to give a final assay volume of 20 μL. Following incubation, HTRF were measured using a Pherastar FSX (BMG Labtech) exciting at 337 nm and measuring the emission at 620/665 nm. The HTRF ratiometric signal was derived and subsequently normalised to the lysate only controls. Data were plotted and fitted, and the concentrations resulting in 50% inhibition (IC50) were calculated using the non-linear regression curve fitting model using GraphPad Prism. IC50 values for the inhibitors of the invention are compiled in Table 1 above and represent the average of at least duplicate experiments.

Chains of the proteins cited; added tags and fusions are not shown.
UniProt Q93009, whole entry: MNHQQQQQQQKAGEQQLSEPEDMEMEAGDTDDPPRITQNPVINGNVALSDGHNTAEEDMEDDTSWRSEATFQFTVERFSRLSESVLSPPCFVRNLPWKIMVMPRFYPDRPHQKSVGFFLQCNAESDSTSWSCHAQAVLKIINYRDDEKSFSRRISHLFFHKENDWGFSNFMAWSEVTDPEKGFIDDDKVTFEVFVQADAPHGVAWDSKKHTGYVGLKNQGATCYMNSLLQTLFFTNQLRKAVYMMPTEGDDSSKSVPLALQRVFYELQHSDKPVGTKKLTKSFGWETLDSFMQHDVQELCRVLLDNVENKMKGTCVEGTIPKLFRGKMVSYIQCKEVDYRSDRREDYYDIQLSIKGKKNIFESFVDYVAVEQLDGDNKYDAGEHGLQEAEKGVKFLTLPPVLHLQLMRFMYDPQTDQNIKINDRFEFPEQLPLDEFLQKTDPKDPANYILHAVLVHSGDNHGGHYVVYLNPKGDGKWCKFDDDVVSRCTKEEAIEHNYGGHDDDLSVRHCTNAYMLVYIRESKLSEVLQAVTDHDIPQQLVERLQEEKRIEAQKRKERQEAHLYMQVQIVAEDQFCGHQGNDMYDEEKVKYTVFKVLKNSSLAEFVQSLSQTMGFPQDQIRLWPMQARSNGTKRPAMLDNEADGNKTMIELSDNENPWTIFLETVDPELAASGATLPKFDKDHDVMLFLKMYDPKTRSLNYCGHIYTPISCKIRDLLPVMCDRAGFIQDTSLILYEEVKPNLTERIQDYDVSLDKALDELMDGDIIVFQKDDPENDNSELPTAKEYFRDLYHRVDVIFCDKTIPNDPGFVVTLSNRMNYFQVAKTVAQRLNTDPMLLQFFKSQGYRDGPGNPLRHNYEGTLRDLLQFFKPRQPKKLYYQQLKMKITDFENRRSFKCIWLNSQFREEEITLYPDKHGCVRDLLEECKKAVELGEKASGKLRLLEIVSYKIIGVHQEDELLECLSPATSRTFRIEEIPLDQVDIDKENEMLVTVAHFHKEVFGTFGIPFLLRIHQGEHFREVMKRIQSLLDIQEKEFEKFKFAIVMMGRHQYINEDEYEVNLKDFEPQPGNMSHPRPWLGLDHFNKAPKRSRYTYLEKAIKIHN

CC1(C)CNC(c2ccc(-n3c(Cl)cc4c(=O)n(CC5(O)CCN(C(=O)C6(C)CC6C(F)(F)F)CC5)cnc43)cc2)CO1 (stereo not shown)
IC50 (USP7 [1]; read-out: Biochemical: USP7 IC50, average of at least duplicate experiments): 0.053 µM
IC50 (USP7 [1]; read-out: USP7 IC50 activity (Table 3a, classes), biochemical inhibition): < 0.1 µM
IC50 (USP7 [1]; read-out: USP7 IC50 activity (Table 3b), biochemical inhibition, unit not given in Table 3b (Table 1 and key of Table 3a use μM)): 0.053 µM
IC50 (USP7 [2]): 72 nM

— patent publication US20250122223A1, “HETEROCYCLIC COMPOUNDS AS UBIQUITIN SPECIFIC PROTEASE 7 INHIBITORS” (ALMAC DISCOVERY LIMITED, priority 2022, published 2025)
